Experimental data from article PMC2867052 (Journal of contaminant hydrology, 2009).
Read-outs that look alike come from different tables or passages of the source.

Conditions: 10% by weight HPCD

Compound: CCCCc1ccccc1 [butylbenzene]
- 10% HPCD Enhancement Factor (E°) (single-component organic liquid): 121
- 10% HPCD Enhancement Factor (E°) (three-component organic liquid (Tol-EB-BB)): 124
